In patent US20050158277A1 (priority 2001, published 2005):

Tests used:
[1] = tested on: macrophage cell line (J774); details: 50 mM BA, MΦ/S.th. 1:1, up to 60 min
[2] = tested on: DnaK (hsp70) and lbpB (hsp17) genes; details: 50 mM BA, at 42° C., cells grown at 30° C.

For OCc1ccccc1 [BA, benzyl alcohol], the “capacity of Salmonella to infect macrophages” value [1] was “reduces its capacity to infect macrophages only temporarily” and the “level of accumulation of DnaK” value [2] was “significant decrease”.
